Target: human V2 receptor (h V2R) (Homo sapiens (Human), UniProt P30518)
Experiment: hV2 receptor agonist transcriptional reporter gene (luciferase) assay
Type: cell-based
Settings: HEK-293 cells transiently transfected with hV2 receptor, dDAVP internal control

For “[1-deamino, 8-D-arginine]-vasopressin [Compound 42]”, the “% Efficacy hV2-R” value was 100%.

Source: patent publication US10131692B2, “Vasopressin-2 receptor agonists” (Ferring B.V., priority 2013, dated 2018)
